Apparent affinities of Ab-14 variants for a coronavirus HR2 peptide

From the AlphaSeq antibody data of Engelhart et al. 2022 (doi:10.1038/s41597-022-01779-4), copy in the FLAb collection.

The target is the same throughout: PDVDLGDISGINAS, from the HR2 region of SARS-CoV-2 spike.

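Phage display of a naive human antibody library on the peptide gave the parent. The library (AAYL49) carries one to three amino acid substitutions per variant, with no insertions or deletions. AlphaSeq pools MATa yeast showing the antibodies with MATalpha yeast showing the peptide. Pairs that bind mate more often; barcode pairs of the diploids are counted by sequencing. Read counts were normalised to the haploid input and turned into Kd by a linear fit to BCL2-family pairs of known affinity, for each replicate. There are three technical replicates.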

Ab-14 is the parent antibody, in scFv form: VH, then three GGGGS repeats, then VL. The light chain is unchanged in all variants.
VH: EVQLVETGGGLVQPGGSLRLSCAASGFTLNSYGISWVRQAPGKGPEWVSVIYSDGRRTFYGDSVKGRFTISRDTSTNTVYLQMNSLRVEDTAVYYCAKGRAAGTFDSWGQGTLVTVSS
VL: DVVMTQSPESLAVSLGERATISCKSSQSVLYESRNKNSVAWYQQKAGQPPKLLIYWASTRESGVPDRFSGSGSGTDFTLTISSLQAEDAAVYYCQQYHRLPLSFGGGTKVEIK

Each variant is given by its three heavy chain CDRs, as the data file delimits them; those of the parent are GFTLNSYGIS, VIYSDGRRTFYGDSVK, GRAAGTFDS.
All variants listed here change T104 of the VH, counted from its first residue.
Values are log10 of the apparent Kd in nM; lower means stronger binding.
Replicates are averaged; those with no signal do not enter the mean.
"ND" marks a missing value. The strain was present, yet no cells mated with the target were sequenced in that replicate, which points to weak or no binding.

With GFTLNSYGIS / VIYSDGRRTFYGDAVK / GRAAGIFDS the result was ND, 2.57, ND.
With GFTLNSYQIS / VIYSDGRRTFYGDSVK / GRAAGKFDQ the result was ND, ND, ND.
With GFTLNSQGIS / VIYSDGRRTFYGDSVK / GRAAGPNDS the result was ND, ND, ND.
With GFTLNSYGIS / VIYSKGRRTFYGDSVL / GRAAGGFDS the result was 3.33, 4.98, 5.63 (mean 4.64).
With GFTLNSYGMS / VIYSDGRRTFYGDSVK / PRAAGPFDS the result was 4.78, 4.66, ND (mean 4.72).
With GFTLNSYGIS / VIYSDGRRTFYGMSVK / GRAAGGFVS the result was ND, ND, ND.
With GFTLNSYGIS / VIYSDGRRTFYGDSQK / GRAAPWFDS the result was ND, 3.53, 4.52 (mean 4.02).
With GFTLNSYGIS / VLYSDGRRTFYGDSVK / GHAAGLFDS the result was 1.53, 1.20, 1.86 (mean 1.53).
With GFTLNSYGPS / VIYSDGRRTFYGDSVK / GRAAGLFDS the result was ND, ND, ND.
With GFTLCSYGIS / VIYSKGRRTFYGDSVK / GRAAGFFDS the result was ND, ND, 3.77.
With GFTLNSYGAS / VIYSDGRRTFYGDSVK / GRKAGHFDS the result was ND, ND, ND.
With GFTLCSYGIS / VIYCDGRRTFYGDSVK / GRAAGRFDS the result was ND, ND, ND.
With CFTLNSYGIS / VIYSDGRRTFYGDSVK / GRAAGYFDS the result was 4.24, 3.02, 3.01 (mean 3.42).
With GFTLNQYGIS / VIYSDGRRTFYGDSVK / GGAAGPFDS the result was 4.58, ND, 4.01 (mean 4.30).
With GFPLNSYGIS / NIYSDGRRTFYGDSVK / GRAAGNFDS the result was ND, ND, 3.91.
With GFTLNSYGIS / VIYSDGRRTNYGDSVK / GRAAIVFDS the result was ND, ND, ND.
With GFTLNSYGIS / VIYIDGRRTFYGDSVK / GRAAGGFDS the result was ND, ND, ND.
With GFTLNSYGIS / VIYSDGRRTVYGDSVK / GTAAGHFDS the result was ND, 4.67, 5.17 (mean 4.92).
With GFTLNSYGIS / VIYSDGRRTFWGDSVK / GNAAGPFDS the result was ND, ND, ND.
With GFTLGSYGIS / VIYSDGRRTFYGWSVK / GRAAGYFDS the result was ND, ND, 5.49.
With GFTLNSYGIS / VIYSDGRRTFYGTSVK / GRAAGCFDS the result was 2.70, 2.36, 2.58 (mean 2.55).
With GFTLNSYGIS / VIYSDGRRTFYGDSLK / GYAAGCFDS the result was ND, ND, ND.
With GFTLNSYGIS / VIYSDGRITFYGDSVK / GRAAGNFDS the result was 5.57, 4.28, ND (mean 4.93).
With GFTLNSYGIS / VIYSDGRRTFYGDSVK / GRAAYVFDS the result was ND, ND, ND.
With GFTLNSYGIS / VIYSDVRRTFYGDSVK / GRAVGHFDS the result was 4.72, ND, ND.
With GFTLVSYGIS / VIYSDGRRTFYGDSVK / GRKAGSFDS the result was ND, ND, 4.20.
With GFLLNSYGIS / NIYSDGRRTFYGDSVK / GRAAGYFDS the result was ND, ND, ND.
With GFTLSSYGIS / VIYSDGRQTFYGDSVK / GRAAGAFDS the result was ND, ND, ND.
With GFTLYSYGIS / VIYSDGRCTFYGDSVK / GRAAGHFDS the result was ND, ND, ND.
With GFTLNSLGIS / VIYSDGRRTFYGDSVK / GRAAGNFDS the result was 2.64, 2.25, 2.30 (mean 2.40).
With GFTLNSYGIS / VIYSDGRRTFYIDSVK / GRAAGEFDS the result was 2.95, 2.56, 2.81 (mean 2.78).
With GFTLNSAGIS / VIYSDGRRTFYGDSVK / GRAAGHFDW the result was ND, 2.51, ND.
With GFTLNSYNIS / VIYSDGRRTFYGDQVK / GRAAGSFDS the result was 4.06, 4.69, ND (mean 4.37).
With GFTNNSYGIS / VGYSDGRRTFYGDSVK / GRAAGAFDS the result was ND, 3.94, ND.
With GFTLNTYGIS / VIYSDGRRSFYGDSVK / GRAAGHFDS the result was 2.74, ND, ND.
With GFTLESYGIS / VIGSDGRRTFYGDSVK / GRAAGYFDS the result was 6.36, ND, ND.
With GFTLESYGIS / VIYSDGRRTFYYDSVK / GRAAGHFDS the result was ND, ND, ND.
With GFTLNSDGIS / VIYSDGRRTFYGDSVT / GRAAGRFDS the result was ND, ND, 4.79.
With GFWLNSYGIS / VIYSEGRRTFYGDSVK / GRAAGSFDS the result was ND, ND, ND.
With GFTLNSYPIS / VIYSDPRRTFYGDSVK / GRAAGAFDS the result was ND, 4.02, ND.

Picked from the list: the 5 lowest averages where every replicate gave a value.

For GFTLNSYGIS / VLYSDGRRTFYGDSVK / GHAAGLFDS, the assay gave 1.53, 1.20, 1.86 (mean 1.53).
For GFTLNSLGIS / VIYSDGRRTFYGDSVK / GRAAGNFDS, the assay gave 2.64, 2.25, 2.30 (mean 2.40).
For GFTLNSYGIS / VIYSDGRRTFYGTSVK / GRAAGCFDS, the assay gave 2.70, 2.36, 2.58 (mean 2.55).
For GFTLNSYGIS / VIYSDGRRTFYIDSVK / GRAAGEFDS, the assay gave 2.95, 2.56, 2.81 (mean 2.78).
For CFTLNSYGIS / VIYSDGRRTFYGDSVK / GRAAGYFDS, the assay gave 4.24, 3.02, 3.01 (mean 3.42).

As a blank, each scFv also met three strains without target: over library AAYL49, 15% of these pairings were detected, typically at 4.06 and seldom below 2.83.